For this test, the target named is human sodium channel NaV1.2 (Homo sapiens, UniProt Q99250). Briefly: NaV1.2 inhibition, automated patch-clamp (Q-Patch HTX), slow inactivated state (state C). It is filed as cell-based. The following applies: IC50 (μM) for NaV1.2 slow inactivated state. An excerpt: In vitro method for NaV1.2 inhibition assays: The methods utilized to assess the inhibitory activity of compounds on NaV1.2 were based on the methods described by Liu et al. [Liu Y, Beck E J, & Flores C M (2011): Validation of a patch clamp screening protocol that simultaneously measures compound activity in multiple states of the voltage-gated sodium channel Nav1.2. Assay Drug Development Technology 9, 628-634]. For these electrophysiology assays, a cell line (Chinese Hamster Ovarian K-1 cells (CHO K-1)) engineered to stably express human sodium channel NaV1.2 was purchased from Millipore Corporation (catalog no. CYL3023). The electrophysiology measurements were performed using automated patch-clamp methods on a Q-Patch HTX instrument by scientists at Evotec AG under contract with Sunovion.
The solutions utilized for the Qpatch experiments were similar buffered solutions to those described by Liu et al. [Liu Y, Beck E J, & Flores C M (2011)]. […]
Based upon results from studies of the fast, slow and total inactivation characteristics of the human Nav1.2 channel, a voltage protocol involving a sequence of consecutive pulses of current was used to measure channel activity in several states [Liu Y, Beck E J, & Flores C M (2011)]. […] Comparison of activity after addition of test compounds or reference compounds with activity after addition of vehicle only provided a measure of percent remaining activity from which percent inhibition was calculated. […] A slight modification of this protocol was utilized to provide measurements as a function of compound concentration, which enabled IC50 values to be determined. IC50 values were calculated by non-linear least squares regression of the data (percent inhibition of ion channel NaV1.2 activity in the slow inactivated state) onto equation (1): % inhibition=100%/(1+(IC50/[compound]) equation (1) […]

The chains behind the UniProt entries cited, without tags or fusion partners.
UniProt Q99250, whole entry: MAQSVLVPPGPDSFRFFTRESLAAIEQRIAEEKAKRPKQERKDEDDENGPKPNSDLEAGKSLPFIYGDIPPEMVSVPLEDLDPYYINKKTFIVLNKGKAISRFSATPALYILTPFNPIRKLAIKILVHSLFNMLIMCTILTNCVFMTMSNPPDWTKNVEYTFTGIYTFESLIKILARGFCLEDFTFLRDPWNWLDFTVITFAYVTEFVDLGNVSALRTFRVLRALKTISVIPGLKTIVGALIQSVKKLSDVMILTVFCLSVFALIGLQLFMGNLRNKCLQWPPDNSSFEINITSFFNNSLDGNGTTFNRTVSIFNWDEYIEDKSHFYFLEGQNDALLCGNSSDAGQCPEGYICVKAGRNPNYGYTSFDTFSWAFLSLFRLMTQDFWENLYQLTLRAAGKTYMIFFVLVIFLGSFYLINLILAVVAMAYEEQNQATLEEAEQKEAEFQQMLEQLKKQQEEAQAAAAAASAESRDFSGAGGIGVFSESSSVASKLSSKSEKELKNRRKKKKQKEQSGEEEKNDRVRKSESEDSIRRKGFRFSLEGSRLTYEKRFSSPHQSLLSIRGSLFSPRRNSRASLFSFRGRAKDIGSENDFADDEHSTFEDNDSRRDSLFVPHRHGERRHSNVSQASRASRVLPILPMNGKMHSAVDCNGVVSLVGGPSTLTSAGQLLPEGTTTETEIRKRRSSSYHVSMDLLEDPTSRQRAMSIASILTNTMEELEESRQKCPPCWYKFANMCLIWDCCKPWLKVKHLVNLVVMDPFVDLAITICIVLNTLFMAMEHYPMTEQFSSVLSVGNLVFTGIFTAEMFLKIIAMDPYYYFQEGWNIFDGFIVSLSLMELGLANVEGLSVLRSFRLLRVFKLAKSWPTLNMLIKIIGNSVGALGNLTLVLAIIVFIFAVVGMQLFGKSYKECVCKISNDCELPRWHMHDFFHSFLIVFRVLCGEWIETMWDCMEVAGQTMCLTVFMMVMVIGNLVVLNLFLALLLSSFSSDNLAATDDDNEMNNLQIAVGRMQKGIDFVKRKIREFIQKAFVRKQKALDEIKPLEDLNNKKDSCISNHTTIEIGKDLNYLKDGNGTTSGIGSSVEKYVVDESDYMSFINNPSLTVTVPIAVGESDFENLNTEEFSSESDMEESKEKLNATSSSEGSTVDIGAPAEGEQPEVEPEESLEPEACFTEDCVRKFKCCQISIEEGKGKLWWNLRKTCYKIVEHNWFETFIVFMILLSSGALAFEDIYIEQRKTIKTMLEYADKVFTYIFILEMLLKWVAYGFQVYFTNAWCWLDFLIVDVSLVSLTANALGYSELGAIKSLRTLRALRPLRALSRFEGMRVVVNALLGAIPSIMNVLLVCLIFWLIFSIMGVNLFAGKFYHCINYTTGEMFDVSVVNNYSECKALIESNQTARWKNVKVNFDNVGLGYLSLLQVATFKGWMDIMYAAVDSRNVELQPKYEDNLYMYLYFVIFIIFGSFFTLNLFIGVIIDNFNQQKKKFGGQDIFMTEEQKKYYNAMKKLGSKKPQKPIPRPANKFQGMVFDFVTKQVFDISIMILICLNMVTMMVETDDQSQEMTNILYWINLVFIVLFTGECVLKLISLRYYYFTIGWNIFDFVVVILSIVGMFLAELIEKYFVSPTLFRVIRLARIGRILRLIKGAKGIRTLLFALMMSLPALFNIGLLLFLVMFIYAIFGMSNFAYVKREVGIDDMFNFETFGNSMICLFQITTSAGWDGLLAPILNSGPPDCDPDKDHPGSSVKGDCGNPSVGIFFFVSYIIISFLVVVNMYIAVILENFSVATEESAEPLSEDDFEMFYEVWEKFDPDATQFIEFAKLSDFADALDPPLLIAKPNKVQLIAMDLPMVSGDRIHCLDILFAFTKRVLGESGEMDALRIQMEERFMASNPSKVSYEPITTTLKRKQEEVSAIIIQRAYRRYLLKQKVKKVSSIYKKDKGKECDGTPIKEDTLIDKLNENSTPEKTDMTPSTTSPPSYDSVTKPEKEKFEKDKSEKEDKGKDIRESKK

Structures are written as SMILES.

For `CCN(CC)CC(=O)Nc1c(C)cccc1C` [lidocaine, reference compound], the IC50 (Test 1, reference compound, Test 1) is 33 µM; inhibition (Test 2, reference compound, Test 2) was half-maximal at 51 µM (IC50); it took 56 µM to reach half-maximal inhibition (Test 3, reference compound, Test 3) (IC50).

The values above are taken from patent US11186564B2, “Dual NAV1.2/5HT2a inhibitors for treating CNS disorders” (Sunovion Pharmaceuticals Inc., priority 2016, dated 2021).
